This is an account of results in patent EP1721601A1, “Use of taurine for enhancing lipid synthesis in the epidermis” (Henkel Kommanditgesellschaft auf Aktien, priority 2005, dated 2006).

Assay type in all cases: cell-based
For one series, the system named is Epidermismodelle. Description: Irritation markers in vitro: viability and LDH release of SDS-damaged epidermis models. Conditions: 1 h 0,18% SDS, rinsed, then 24 h topical emulsion (C: 0.1 Gew.-% Triamcinolonacetonid; E: 1 Gew.-% Taurin; B: no further treatment), mean +/- SEM, n=3. The method, then:
(§1) Epidermismodelle wurden 1 Stunde lang topisch mit einer wässrigen Lösung von 0,18% SDS in Wasser inkubiert. Diese Behandlung resultierte erwartungsgemäß in einer deutlichen Verminderung der zellulären Vitalität, einer gesteigerten Freisetzung von LDH (Lactatdehydrogenase), Interleukin 1-alpha (IL-1alpha) und Prostaglandin E2 (PGE2). Anschließend wurden die Epidermismodelle abgespült und für weitere 24h unter topischer Applikation folgender Emulsionen inkubiert: C: Kortikoid-ratiopharm® Creme (0.1 Gew.-% Triamcinolonacetonid); D: 1,5 Gew.-% Behenylalkohol + 2,75 Gew.-% Arachidylalkohol; E: 1,5 Gew.-% Behenylalkohol + 2,75 Gew.-% Arachidylalkohol +1 Gew.-% Taurin. Zur Kontolle wurden Epidermismodelle unbehandelt kultiviert (A) oder verblieben nach Abspülung der SDS-Lösung unbehandelt (B). Die Daten repräsentieren die Mittelwerte +/-SEM (n=3).

The test system of series [1] is Interleukin 1-alpha (IL-1alpha). As to the kind of experiment: Irritation markers in vitro: IL-1alpha release of SDS-damaged epidermis models. To be noted: 1 h 0,18% SDS, rinsed, then 24 h topical emulsion (C: 0.1 Gew.-% Triamcinolonacetonid; E: 1 Gew.-% Taurin; B: no further treatment); mean +/- SEM, n=3; unbehandelt 15, Vehikel 387. The method, then: as §1
The test system of the next series is Prostaglandin E2 (PGE2). Description: Irritation markers in vitro: PGE2 release of SDS-damaged epidermis models. Conditions: 1 h 0,18% SDS, rinsed, then 24 h topical emulsion (C: 0.1 Gew.-% Triamcinolonacetonid; E: 1 Gew.-% Taurin; B: no further treatment); mean +/- SEM, n=3; unbehandelt 0,84, Vehikel 1,40. The method, then: as §1

Consider `CCCCCCCCCCCCOS(=O)(=O)O` [SDS, Natriumdodecylsulfat, reference compound], for which the LDH-Freisetzung with Epidermismodelle (unbehandelt 0,22, Vehikel 1,95) is listed as 2,21 +/- 0,35 OD 492nm. In addition, the Vitalität in the series on Epidermismodelle (unbehandelt 100, Vehikel 66) was 53 +/- 12%. The molecule further registered an IL-1alpha-Freisetzung in series [1] of 395 ± 106 pg/mL. Moreover, in the series on Prostaglandin E2 (PGE2), the PGE2-Freisetzung was 6,69 +/- 0,68 ng/ml.
